Measured values: EP0561496A2, “cDNAs encoding the gastrin and CCK-B receptors” (NEW ENGLAND MEDICAL CENTER HOSPITALS, INC., priority 1992, dated 1993)

Chains of the proteins cited; added tags and fusions are not shown. Lines headed by an entry give the natural chain unless they say otherwise; changes in a name come on top.
UniProt P01350: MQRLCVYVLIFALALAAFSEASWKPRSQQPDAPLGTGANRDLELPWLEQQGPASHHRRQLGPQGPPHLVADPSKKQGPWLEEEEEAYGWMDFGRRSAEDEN

Biological target: human brain CCK-B receptor (recombinant, clone hCCKB, expressed in transfected COS-7 cells) (human)
Assay: competition against 125I-CCK-8, hCCKB transfected COS-7 cells

IC50: 0.94 nM
Substance: gastrin I (from UniProt P01350 76-92) (peptide)
